Laboratory results published in ChEMBL document CHEMBL4376894 (J Med Chem, 2020).

Chains of the proteins cited; added tags and fusions are not shown. Lines headed by an entry give the natural chain unless they say otherwise; changes in a name come on top.
UniProt P35372, whole entry: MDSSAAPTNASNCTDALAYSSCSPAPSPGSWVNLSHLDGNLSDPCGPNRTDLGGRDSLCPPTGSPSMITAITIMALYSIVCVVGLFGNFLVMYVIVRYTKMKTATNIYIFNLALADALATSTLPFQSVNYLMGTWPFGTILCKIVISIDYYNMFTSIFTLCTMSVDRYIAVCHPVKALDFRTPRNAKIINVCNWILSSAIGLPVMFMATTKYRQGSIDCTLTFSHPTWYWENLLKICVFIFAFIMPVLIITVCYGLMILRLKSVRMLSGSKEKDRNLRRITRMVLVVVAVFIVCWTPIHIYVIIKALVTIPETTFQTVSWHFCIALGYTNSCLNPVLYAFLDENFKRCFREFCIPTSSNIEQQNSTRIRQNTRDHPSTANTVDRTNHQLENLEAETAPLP
UniProt P41145: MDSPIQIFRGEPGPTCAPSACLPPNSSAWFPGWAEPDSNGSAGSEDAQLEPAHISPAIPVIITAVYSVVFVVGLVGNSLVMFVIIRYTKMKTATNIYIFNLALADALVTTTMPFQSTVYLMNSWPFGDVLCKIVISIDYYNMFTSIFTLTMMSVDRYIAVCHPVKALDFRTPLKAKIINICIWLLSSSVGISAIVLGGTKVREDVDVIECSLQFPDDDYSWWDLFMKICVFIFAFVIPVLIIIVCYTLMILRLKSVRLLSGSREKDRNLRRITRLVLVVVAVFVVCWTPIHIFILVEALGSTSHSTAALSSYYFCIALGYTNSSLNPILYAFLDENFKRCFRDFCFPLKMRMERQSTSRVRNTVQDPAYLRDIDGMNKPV

Experiments:
[1] = molecular target: Mu-type opioid receptor (Homo sapiens, UniProt P35372); assay: biochemical; assay type: functional, cell-based, CHO
[2] = molecular target: Kappa-type opioid receptor (Homo sapiens, UniProt P41145); assay: biochemical; assay type: functional, cell-based, CHO

SMILES | EC50 ([1]; read-out: EC50) [nM] | EC50 ([2]; read-out: EC50) [nM] | EC50 ([2]; cho) | EC50 ([1]; cho)
CCOc1ccc(CN2CC3CC3C2)cc1CNC(=O)[C@@H](N)Cc1c(C)cc(O)cc1C (stereo not given in full) | 990 | > 10000 | – | –
CCOc1ccc(CN2CCc3ccccc3C2)cc1CNC(=O)[C@@H](N)Cc1c(C)cc(O)cc1C.O=C(O)C(F)(F)F | 1.9 | – | Not Active | –
CCOc1ccc(CN2Cc3ccccc3C2)cc1CNC(=O)[C@@H](N)Cc1c(C)cc(O)cc1C.O=C(O)C(F)(F)F | 8.4 | – | Not Active | –
CCOc1ccc(C(=O)N2Cc3ccccc3C2)cc1CNC(=O)[C@@H](N)Cc1c(C)cc(O)cc1C.O=C(O)C(F)(F)F | 15 | – | Not Active | –
CCOc1ccc(C(=O)N2CCCC2)cc1CNC(=O)[C@@H](N)Cc1c(C)cc(O)cc1C.O=C(O)C(F)(F)F | – | – | Not Active | Not Active
CCOc1ccc(CN2CCCCC2)cc1CNC(=O)[C@@H](N)Cc1c(C)cc(O)cc1C.O=C(O)C(F)(F)F | 585 | – | Not Active | –
CCOc1ccc(CN2CCOCC2)cc1CNC(=O)[C@@H](N)Cc1c(C)cc(O)cc1C.O=C(O)C(F)(F)F | 1020 | – | Not Active | –
CCOc1ccc(CN2CCCC2)cc1CNC(=O)[C@@H](N)Cc1c(C)cc(O)cc1C.O=C(O)C(F)(F)F | 168 | > 6000 | – | –
CCOc1ccc(CN(C)Cc2ccccc2)cc1CNC(=O)[C@@H](N)Cc1c(C)cc(O)cc1C.O=C(O)C(F)(F)F | 33.9 | – | Not Active | –
CCOc1ccc(CNCc2ccccc2)cc1CNC(=O)[C@@H](N)Cc1c(C)cc(O)cc1C.O=C(O)C(F)(F)F | 16.7 | > 1000 | – | –
